Nine molecules from patent US8895598B2, “Methods of treating a flaviviridae family viral infection, compositions for treating a flaviviridae family viral infection, and screening assays for identifying compositions for treating a flaviviridae family viral infection” (priority 2007, dated 2014) can be followed below.

The term viability denotes a read-out of living cells in per cent, often relative to untreated cells.

The data set is described as follows: Alamar Blue-based viability assay. Particulars: human. The method, then:
The in vivo antiviral effect on HCV RNA replication of the inhibitory compounds identified in the above screen was measured. Following electroporation with a full-length HCV RNA genome harboring a Luciferase reporter gene^28, Huh7.5 cells were grown in the presence of increasing concentrations of these compounds. Luciferase assays were performed at 72 hr. In parallel, the viability of cells in the presence of the compounds was assessed by an Alamar Blue-based assay.
Following 72 hrs of treatment, cells were incubated for 3 hrs at 37° C. in the presence of 10% Alamar Blue reagent (TREK Diagnostic Systems). Plates were then scanned and fluorescence was detected by using FLEXstation II 384 (Molecular Devices, Inc.).
In general terms: Resazurin is reduced to fluorescent resorufin, in cell work by metabolically active cells.

Setting [1] is: Viab (cell viability, percent of normal activity remaining).
Where [2] appears, read: Viab score (binned residual cell viability).

In the case of `Cc1ccc(Cn2cnc3ccccc32)cc1`, under setting [1], the viability at 72 h, 5 µM amounted to 99% and the viability at 72 h, 10 µM was determined as 84%. Moreover, under setting [2], the viability at 72 h, 10 µM fell in the range of 60 to 90%.

For `COC(=O)c1ccc(Cn2cnc3ccccc32)cc1`, under setting [1], the viability at 72 h, 5 µM was found to be 101% and the viability at 72 h, 10 µM was 96%.

On to `CC(C)(C)c1ccc(Cn2cnc3ccccc32)cc1`, for which, under setting [1], the viability at 72 h, 5 µM was found to be 87% and the viability at 72 h, 10 µM was 76%. Further, under setting [2], the viability at 72 h, 5 µM fell in the range of 60 to 90% and the viability at 72 h, 10 µM is 60 to 90%.

Consider `Brc1ccc(Cn2cnc3ccccc32)cc1`, for which, under setting [1], the viability at 72 h, 5 µM amounted to 81% and the viability at 72 h, 10 µM turned out to be 68%. Further, under setting [2], the viability at 72 h, 5 µM lay in the range of 60 to 90% and the viability at 72 h, 10 µM lay within 60 to 90%.

As to `COc1ccc(Cn2cnc3ccccc32)cc1`, under setting [1], the viability at 72 h, 5 µM stood at 98% and the viability at 72 h, 10 µM stood at 100%.

As for `Cc1nc2ccccc2n1Cc1ccc(Br)cc1`, under setting [1], the viability at 72 h, 5 µM was found to be 54% and the viability at 72 h, 10 µM was 51%. Also, under setting [2], the viability at 72 h, 5 µM fell in the range of 30 to 60% and the viability at 72 h, 10 µM lay in the range of 30 to 60%.

Take `OCc1nc2ccccc2n1Cc1ccc(Br)cc1`: under setting [1], the viability at 72 h, 5 µM was 97% and the viability at 72 h, 10 µM was found to be 90%.

With `Cc1nc2cc(Cl)ccc2n1Cc1ccccc1`, under setting [1], the viability at 72 h, 5 µM was 99% and the viability at 72 h, 10 µM is 94%.

In the case of `Cc1cc2ncn(Cc3ccc(Cl)cc3Cl)c2cc1C`, under setting [1], the viability at 72 h, 5 µM was 83% and the viability at 72 h, 10 µM worked out at 70%. Under setting [2], the viability at 72 h, 5 µM was in the range of 60 to 90% and the viability at 72 h, 10 µM was in the range of 60 to 90%.
